Measured values published in US5206162A, “Process for making D-aminoacylase” (National Science Council of Republic of China, priority 1991, dated 1993).

By UniProt entry, the sequences of proteins in these tests, tags left out. Residues count along the entry.
UniProt Q9AGH8, 1-484: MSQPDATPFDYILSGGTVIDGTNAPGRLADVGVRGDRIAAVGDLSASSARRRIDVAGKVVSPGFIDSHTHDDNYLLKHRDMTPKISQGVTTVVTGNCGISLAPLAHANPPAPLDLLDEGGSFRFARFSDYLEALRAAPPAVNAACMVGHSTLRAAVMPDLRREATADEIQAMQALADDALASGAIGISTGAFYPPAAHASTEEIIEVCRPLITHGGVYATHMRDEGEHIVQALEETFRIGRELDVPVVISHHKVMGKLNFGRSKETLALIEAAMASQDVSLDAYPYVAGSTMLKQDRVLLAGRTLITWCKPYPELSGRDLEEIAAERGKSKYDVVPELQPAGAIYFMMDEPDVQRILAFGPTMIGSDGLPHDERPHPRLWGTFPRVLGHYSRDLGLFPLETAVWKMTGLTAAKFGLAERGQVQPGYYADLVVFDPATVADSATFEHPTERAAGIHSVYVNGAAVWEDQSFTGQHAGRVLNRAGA

Target: D-aminoacylase (Alcaligenes faecalis, UniProt Q9AGH8)
Assay: Reagents (inhibitors) influencing the D-aminoacylase activities
Type: biochemical
Conditions: 1 mM inhibitor, 50 mM Tris-HCl pH 7.8, 30 minutes at 37° C., ninhydrin method

[N-]=[N+]=[N-]
Residual activities %: 97%
